{"source": "patent US10934439B2", "about": "“Additives for coating compositions and related methods” (Massachusetts Institute of Technology, priority 2017, dated 2021)", "test": "Solubility / dissolution testing", "settings": "room temperature", "data": [{"substance": "magnesium acetate thiodipropionate [MgAcTDPA]", "values": [{"measurement": "aqueous solubility", "result": "unlimited aqueous solubility"}]}]}
